Experimental data reported in ChEMBL document CHEMBL5647694, “Novel orally bioavailable EZH1/2 dual inhibitors with greater antitumor efficacy than an EZH2 selective inhibitor” (Cancer Sci, 2017).

Target: T1, Histone-lysine N-methyltransferase EZH1 (Homo sapiens, UniProt Q92800)
T1 sequence (Q92800 whole entry): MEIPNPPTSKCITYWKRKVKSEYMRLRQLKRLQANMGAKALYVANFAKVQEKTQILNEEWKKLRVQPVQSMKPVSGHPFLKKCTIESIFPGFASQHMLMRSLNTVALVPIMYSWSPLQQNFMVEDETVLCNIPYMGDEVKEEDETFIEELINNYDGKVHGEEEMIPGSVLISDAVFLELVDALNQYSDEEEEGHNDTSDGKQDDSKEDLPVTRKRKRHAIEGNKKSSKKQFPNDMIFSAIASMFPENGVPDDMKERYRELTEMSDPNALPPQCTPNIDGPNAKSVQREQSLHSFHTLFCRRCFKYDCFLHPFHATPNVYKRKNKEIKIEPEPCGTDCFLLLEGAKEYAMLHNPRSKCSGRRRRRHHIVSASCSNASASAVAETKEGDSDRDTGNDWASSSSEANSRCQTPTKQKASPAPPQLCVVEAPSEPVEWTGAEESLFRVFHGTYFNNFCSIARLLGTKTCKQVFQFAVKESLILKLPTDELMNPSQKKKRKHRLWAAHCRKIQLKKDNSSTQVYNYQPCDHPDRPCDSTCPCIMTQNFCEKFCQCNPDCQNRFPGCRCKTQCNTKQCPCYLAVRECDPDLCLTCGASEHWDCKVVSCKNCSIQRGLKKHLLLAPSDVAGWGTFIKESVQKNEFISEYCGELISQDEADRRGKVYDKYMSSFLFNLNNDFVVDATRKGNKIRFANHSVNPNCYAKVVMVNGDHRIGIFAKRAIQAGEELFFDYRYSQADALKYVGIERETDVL

Molecule `Cc1cc(C)c(CNC(=O)c2cc(Br)c3c(c2C)OC(C)(C2CCC(N(C)C)CC2)O3)c(=O)[nH]1` (stereo unspecified) has an IC50 of 16.3 nM.
